Measured values from US20240360179A1, “STAPLED PEPTIDES AND METHODS THEREOF” (FOG PHARMACEUTICALS, INC., priority 2021, published 2024).

Amino acid sequences for entries named in this document (tags omitted).
UniProt P35222, whole entry: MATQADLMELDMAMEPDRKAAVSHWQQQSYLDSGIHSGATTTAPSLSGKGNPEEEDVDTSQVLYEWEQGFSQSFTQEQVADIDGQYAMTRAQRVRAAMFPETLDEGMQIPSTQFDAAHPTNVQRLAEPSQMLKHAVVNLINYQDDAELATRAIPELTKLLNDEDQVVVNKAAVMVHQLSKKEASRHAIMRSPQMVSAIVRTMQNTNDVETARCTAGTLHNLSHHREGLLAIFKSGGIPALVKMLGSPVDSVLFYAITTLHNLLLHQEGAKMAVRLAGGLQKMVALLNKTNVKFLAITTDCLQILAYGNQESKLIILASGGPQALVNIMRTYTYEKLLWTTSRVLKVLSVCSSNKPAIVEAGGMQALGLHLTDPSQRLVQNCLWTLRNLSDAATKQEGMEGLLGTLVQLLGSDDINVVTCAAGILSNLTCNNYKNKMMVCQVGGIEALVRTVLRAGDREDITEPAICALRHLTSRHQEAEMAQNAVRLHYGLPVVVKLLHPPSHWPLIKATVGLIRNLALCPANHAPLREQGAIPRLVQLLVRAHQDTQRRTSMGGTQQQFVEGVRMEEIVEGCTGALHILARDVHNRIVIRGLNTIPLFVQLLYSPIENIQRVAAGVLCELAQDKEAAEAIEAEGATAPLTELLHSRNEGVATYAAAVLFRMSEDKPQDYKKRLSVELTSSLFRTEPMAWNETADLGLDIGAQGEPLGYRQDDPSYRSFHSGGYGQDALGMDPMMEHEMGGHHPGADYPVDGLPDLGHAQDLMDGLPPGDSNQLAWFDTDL

Columns and labels:
[1] = biological target: beta-catenin/TCF4 interaction (Homo sapiens, UniProt P35222); assay: cell-based; parameters: host or cells: HEK293; settings: NanoBRET Abs IC50 (uM)
[2] = biological target: T1, full-length B-Catenin (Uniprot ID P35222) (Homo sapiens, UniProt P35222); assay: biochemical; assay type: binding; settings: beta-Catenin FP IC50 (nM), competition fluorescence polarization
T1 construct: 10 nM full-length B-Catenin (Uniprot ID P35222)

IC50 [1] [µM]	IC50 [2] [nM]	IC50 ([1]; absolute IC50) [µM]	SMILES
3 to 10	< 50		CC(=O)N1CCC[C@]12CC=CCCCC1(CCCC=CCCCOC(=O)N3CC[C@@]4(C3)NC(=O)[C@H](CCCCNC(=O)C[C@@H](C(N)=O)NC(=O)[C@H](Cc3csc5ccccc35)NC(=O)[C@H](Cc3ccccc3C(F)(F)F)NC4=O)NC(=O)[C@H](Cc3ccccc3)NC(=O)[C@H](C)NC(=O)[C@H](C)NC(=O)[C@H](Cc3cccc(C(=O)O)c3)NC(=O)[C@H](CC(=O)O)NC1=O)NC(=O)[C@H](CC(C)(C)C)NC(=O)[C@H](CC(=O)O)NC2=O (relative stereo) [I-56, Ac-PL3-Asp-Npg-B5-Asp-3COOHF-Ala-Ala-Phe-Lys*3-PyrS2-2F3MeF-BztA-AsnR*3-NH2]
3 to 10	< 50		CC(=O)N1CCC[C@]12CC=CCCCC1(CCCC=CCCCOC(=O)N3CC[C@@]4(C3)NC(=O)[C@H](Cc3cn(nn3)CCCC[C@@H](C(N)=O)NC(=O)[C@H](Cc3csc5ccccc35)NC(=O)[C@H](Cc3ccccc3C(F)(F)F)NC4=O)NC(=O)[C@H](Cc3ccccc3)NC(=O)[C@H](C)NC(=O)[C@H](C)NC(=O)[C@H](Cc3cccc(C(=O)O)c3)NC(=O)[C@H](CC(=O)O)NC1=O)NC(=O)[C@H](CC(C)(C)C)NC(=O)[C@H](CC(=O)O)NC2=O (stereo partly drawn) [I-25, Ac-PL3-Asp-Npg-B5-Asp-3COOHF-Ala-Ala-Phe-sAla*3-PyrS2-2F3MeF-BztA-TriAzLys*3-NH2]
	< 50	> 10	CC(=O)N1CCC[C@]12CC=CCCCC1(CCCC=CCCCOC(=O)N3CC[C@@]4(C3)NC(=O)[C@H](CCCCNC(=O)CC[C@@H](C(=O)N[C@@H](C)C(N)=O)NC(=O)[C@H](Cc3csc5ccccc35)NC(=O)[C@H](Cc3ccsc3)NC4=O)NC(=O)[C@H](Cc3ccccc3)NC(=O)[C@H](C)NC(=O)[C@](C)(CC(C)C)NC(=O)[C@H](Cc3cccc(C(=O)O)c3)NC(=O)[C@H](CC(=O)O)NC1=O)NC(=O)[C@H](CC(C)(C)C)NC(=O)[C@H](CC(=O)O)NC2=O (relative stereo) [I-432, Ac-PL3-Asp-Npg-B5-Asp-3COOHF-aMeL-Ala-Phe-Lys*3-PyrS2-3Thi-BztA-GlnR*3-Ala-NH2]
> 10	> 1000		CC(=O)N1CCC[C@]12CC=CCCCC1(CCCC=CCCCOC(=O)N3CC[C@@]4(C3)NC(=O)[C@H](CCCCNC(=O)CC[C@@H](C(=O)N[C@@H](C)C(N)=O)NC(=O)[C@H](Cc3csc5ccccc35)NC(=O)[C@H](Cc3ccccc3C(F)(F)F)NC4=O)NC(=O)[C@H](Cc3ccccc3)NC(=O)[C@H](C)NC(=O)C(C)(C)NC(=O)[C@H](C(C)C)NC(=O)[C@H](CC(=O)O)NC1=O)NC(=O)[C@H](CC(C)(C)C)NC(=O)[C@H](CC(=O)O)NC2=O (relative stereo) [I-209, Ac-PL3-Asp-Npg-B5-Asp-Val-Aib-Ala-Phe-Lys*3-PyrS2-2F3MeF-BztA-GlnR*3-Ala-NH2]
3 to 10	50 to 200		CC(=O)N1CCC[C@]12CC=CCCCC1(CCCC=CCCCOC(=O)N3CC[C@@]4(C3)NC(=O)[C@H](CCCCNC(=O)CC[C@@H](C(=O)N[C@@H](C)C(N)=O)NC(=O)[C@H](Cc3csc5ccccc35)NC(=O)[C@H](Cc3ccccc3C(F)(F)F)NC4=O)NC(=O)[C@H](Cc3ccccc3)NC(=O)[C@H](C)NC(=O)C(C)(C)NC(=O)[C@H](Cc3cccc(C(N)=O)c3)NC(=O)[C@H](CC(=O)O)NC1=O)NC(=O)[C@H](CC(C)(C)C)NC(=O)[C@H](CC(=O)O)NC2=O (relative stereo) [I-218, Ac-PL3-Asp-Npg-B5-Asp-3cbmf-Aib-Ala-Phe-Lys*3-PyrS2-2F3MeF-BztA-GlnR*3-Ala-NH2]
	< 50	3 to 10	CC(=O)N1CCC[C@]12CC=CCCCC1(CCCC=CCCCOC(=O)N3CC[C@@]4(C3)NC(=O)[C@H](CCCCNC(=O)CC[C@@H](C(=O)N[C@@H](CC(C)C)C(=O)N[C@@H](CC(=O)O)C(=O)N[C@@H](C)C(N)=O)NC(=O)[C@H](Cc3csc5ccccc35)NC(=O)[C@H](Cc3ccsc3)NC4=O)NC(=O)[C@H](Cc3ccccc3)NC(=O)[C@H](C)NC(=O)C(C)(C)NC(=O)[C@H](Cc3cccc(C(=O)O)c3)NC(=O)[C@H](CC(=O)O)NC1=O)NC(=O)[C@H](CC(C)(C)C)NC(=O)[C@H](CC(=O)O)NC2=O (relative stereo) [I-493, Ac-PL3-Asp-Npg-B5-Asp-3COOHF-Aib-Ala-Phe-Lys*3-PyrS2-3Thi-BztA-GlnR*3-Leu-Asp-Ala-NH2]
	< 50	1.5 to 3	CC(=O)N1CCC[C@]12CC=CCCCC1(CCCC=CCCCOC(=O)N3CC[C@@]4(C3)NC(=O)[C@H](CCCCNC(=O)CC[C@@H](C(=O)N[C@H](C(=O)N[C@H](C(=O)N[C@@H](C)C(N)=O)[C@@H](C)O)C(C)C)NC(=O)[C@H](Cc3csc5ccccc35)NC(=O)[C@H](Cc3ccsc3)NC4=O)NC(=O)[C@H](Cc3ccccc3)NC(=O)[C@H](C)NC(=O)C(C)(C)NC(=O)[C@H](Cc3cccc(C(=O)O)c3)NC(=O)[C@H](CC(=O)O)NC1=O)NC(=O)[C@H](CC(C)(C)C)NC(=O)[C@H](CC(=O)O)NC2=O (single isomer, unassigned) [I-508, Ac-PL3-Asp-Npg-B5-Asp-3COOHF-Aib-Ala-Phe-Lys*3-PyrS2-3Thi-BztA-GlnR*3-Val-Thr-Ala-NH2]
3 to 10	< 50		CCC(CC)[C@@H]1NC(=O)[C@H](CC(=O)O)NC(=O)[C@]2(CC=CCCCC3(CCCC=CCCCOC(=O)N4CC[C@@]5(C4)NC(=O)[C@H](CCCCNC(=O)CC[C@@H](C(=O)N[C@@H](C)C(N)=O)NC(=O)[C@H](Cc4csc6ccccc46)NC(=O)[C@H](Cc4ccsc4)NC5=O)NC(=O)[C@H](Cc4ccccc4)NC(=O)[C@H](C)NC(=O)C(C)(C)NC(=O)[C@H](Cc4cccc(C(=O)O)c4)NC(=O)[C@H](CC(=O)O)NC3=O)NC1=O)CCCN2C(C)=O (relative stereo) [I-255, Ac-PL3-Asp-DiethA-B5-Asp-3COOHF-Aib-Ala-Phe-Lys*3-PyrS2-3Thi-BztA-GlnR*3-Ala-NH2]
3 to 10	< 50		CC(=O)N1CCC[C@]12CC=CCCCC1(CCCC=CCCCOC(=O)N3CC[C@@]4(C3)NC(=O)[C@H](CCCCNC(=O)CC[C@@H](C(=O)N[C@@H](C)C(N)=O)NC(=O)[C@H](Cc3csc5ccccc35)NC(=O)[C@H](Cc3ccsc3)NC4=O)NC(=O)[C@H](Cc3ccccc3)NC(=O)[C@H](C)NC(=O)C(C)(C)NC(=O)[C@H](Cc3cccc(C(=O)O)c3)NC(=O)[C@H](CC(N)=O)NC1=O)NC(=O)[C@H](CC(C)(C)C)NC(=O)[C@H](CC(=O)O)NC2=O (relative stereo) [I-165, Ac-PL3-Asp-Npg-B5-Asn-3COOHF-Aib-Ala-Phe-Lys*3-PyrS2-3Thi-BztA-GlnR*3-Ala-NH2]
3 to 10	< 50		CC(=O)N1CCC[C@]12CC=CCCCC1(CCCC=CCCCOC(=O)N3CC[C@@]4(C3)NC(=O)[C@H](CCCC(=O)N(C(C)C)CCCC[C@@H](C(=O)N[C@@H](C)C(N)=O)NC(=O)[C@H](Cc3csc5ccccc35)NC(=O)[C@H](Cc3ccccc3C(F)(F)F)NC4=O)NC(=O)[C@H](Cc3ccccc3)NC(=O)[C@H](C)NC(=O)[C@H](C)NC(=O)[C@H](Cc3cccc(C(=O)O)c3)NC(=O)[C@H](CC(=O)O)NC1=O)NC(=O)[C@H](CC(C)(C)C)NC(=O)[C@H](CC(=O)O)NC2=O (relative stereo) [I-189, Ac-PL3-Asp-Npg-B5-Asp-3COOHF-Ala-Ala-Phe-hGlnR*3-PyrS2-2F3MeF-BztA-iPrLys*3-Ala-NH2]
1.5 to 3	< 50		CC(=O)N1CCC[C@]12CC=CCCCC1(CCCC=CCCCOC(=O)N3CC[C@@]4(C3)NC(=O)[C@H](CCC(=O)NCCCC[C@@H](C(N)=O)NC(=O)[C@H](Cc3csc5ccccc35)NC(=O)[C@H](Cc3ccsc3)NC4=O)NC(=O)[C@H](Cc3ccccc3)NC(=O)[C@H](C)NC(=O)[C@H](C)NC(=O)[C@H](Cc3cccc(C(=O)O)c3)NC(=O)[C@H](CC(=O)O)NC1=O)NC(=O)[C@H](CC(C)C)NC(=O)[C@H](CC(=O)O)NC2=O (single isomer, unassigned) [I-15, Ac-PL3-Asp-Leu-B5-Asp-3COOHF-Ala-Ala-Phe-GlnR*3-PyrS2-3Thi-BztA-Lys*3-NH2]
	> 1000	> 10	CC(=O)N1CCC[C@]12CC=CCCCC1(CCCC=CCCCOC(=O)N3CC[C@@]4(C3)NC(=O)[C@H](CCCCNC(=O)CC[C@@H](C(=O)N[C@@H](C)C(N)=O)NC(=O)[C@H](Cc3csc5ccccc35)NC(=O)[C@H](Cc3ccsc3)NC4=O)NC(=O)[C@H](Cc3ccccc3)NC(=O)[C@H](C)NC(=O)C(C)(C)NC(=O)[C@H](CCC(=O)O)NC(=O)[C@H](CCCC(=O)O)NC1=O)NC(=O)[C@H](CC(C)(C)C)NC(=O)[C@H](CCCC(=O)O)NC2=O (relative stereo) [I-556, Ac-PL3-Aad-Npg-B5-Aad-Glu-Aib-Ala-Phe-Lys*3-PyrS2-3Thi-BztA-GlnR*3-Ala-NH2]
3 to 10	< 50		CC(=O)N1CCC[C@]12CC=CCCCC1(CCCC=CCCCOC(=O)N3CC[C@@]4(C3)NC(=O)[C@H](CCCCNC(=O)CC[C@@H](C(=O)N[C@@H](C)C(N)=O)NC(=O)[C@H](Cc3csc5ccccc35)NC(=O)[C@H](Cc3ccccc3C(F)(F)F)NC4=O)NC(=O)[C@H](Cc3ccccc3)NC(=O)[C@H](C)NC(=O)C(C)(C)NC(=O)[C@H](CC(N)=O)NC(=O)[C@H](CC(=O)O)NC1=O)NC(=O)[C@H](CC(C)(C)C)NC(=O)[C@H](CC(=O)O)NC2=O (relative stereo) [I-212, Ac-PL3-Asp-Npg-B5-Asp-Asn-Aib-Ala-Phe-Lys*3-PyrS2-2F3MeF-BztA-GlnR*3-Ala-NH2]
	< 50	1.5 to 3	CC(=O)N1CCC[C@]12CC=CCCCC1(CCCC=CCCCOC(=O)N3CC[C@@]4(C3)NC(=O)[C@H](CCCCNC(=O)CC[C@@H](C(=O)N[C@@H](C)C(N)=O)NC(=O)[C@H](Cc3csc5ccccc35)NC(=O)[C@H](Cc3ccsc3)NC4=O)NC(=O)[C@H](Cc3ccccc3)NC(=O)[C@H](C)NC(=O)[C@H](CCC(=O)N3CCOCC3)NC(=O)[C@H](Cc3cccc(C(=O)O)c3)NC(=O)[C@H](CC(=O)O)NC1=O)NC(=O)[C@H](CC(C)(C)C)NC(=O)[C@H](CC(=O)O)NC2=O (relative stereo) [I-378, Ac-PL3-Asp-Npg-B5-Asp-3COOHF-MorphGln-Ala-Phe-Lys*3-PyrS2-3Thi-BztA-GlnR*3-Ala-NH2]
